GIV Gai3 FP: blocks GIV peptide binding to rat Galpha-i3; P08753; Galpha-i3/FITC-GIV peptide fluorescence polarization, 90 min; stronger effect = lower value; scaled: aluminum fluoride 0%, vehicle 100%; percent of control (FP), % (no concentration beside the values); 210,000 tested, 0.42% active; AID 1224905;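 active = replicate mean at 85% of control or lower, very high polarization wells dropped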;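 also: wells of about 15 µL received 100 nL stock; the first replicate is given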
* marks the source's active call; other numbers are inactive results. The full list was thinned out, with hits kept by preference.

SMILES: CC(C)(C)c1csc(-c2csc(S(=O)(=O)NCc3ccccc3Cl)c2)n1
  GIV Gai3 FP = 101.9

SMILES: O=C(c1ccco1)N1N=C(c2ccccc2)CC1c1cc2cc3c(cc2nc1Cl)OCCO3 (configuration not stated)
  GIV Gai3 FP = 98.6

SMILES: CCS(=O)(=O)N1N=C(c2ccccc2)CC1c1cc2cc3c(cc2nc1Cl)OCCO3 (configuration not stated)
  GIV Gai3 FP = -53.2*

SMILES: CC(=O)N1N=C(c2ccccc2)CC1c1cc2cc3c(cc2nc1Cl)OCO3 (configuration not stated)
  GIV Gai3 FP = 104.5

SMILES: CC1CN(C(=O)CCC(=O)NCCc2ccc(S(N)(=O)=O)cc2)c2ccccc2O1 (configuration not stated)
  GIV Gai3 FP = 101.9

SMILES: COc1ccc(-c2cc(C3CC3)[nH]c(=S)c2C#N)cc1
  GIV Gai3 FP = 103.2

SMILES: COc1ccc(C2=CC(C3CC3)=C(C#N)C(=C(C#N)C#N)N2)cc1
  GIV Gai3 FP = 65.2*

SMILES: CN(C)c1ccc(C2=CC(C3CC3)=C(C#N)C(=C(C#N)C#N)N2)cc1
  GIV Gai3 FP = 104.9

SMILES: COc1ccc(S(=O)(=O)N2CCc3cc4ccccc4nc32)cc1Cl
  GIV Gai3 FP = 103.7

SMILES: C/C=C/C=N/Nc1nnc2c(n1)[nH]c1ccccc12
  GIV Gai3 FP = 112.0

SMILES: COc1ccc(/C=C2\OC(=S)N(C)C2=O)cc1
  GIV Gai3 FP = 102.6

SMILES: COc1cc(/C=C2/OC(=S)N(C)C2=O)ccc1O
  GIV Gai3 FP = -72.6*

SMILES: COc1cc(/C=C2\Oc3ccc4c(C)cc(=O)oc4c3C2=O)ccc1O
  GIV Gai3 FP = 103.6

SMILES: O=C(CC1Sc2ccccc2NC1=O)Nc1ccc(F)cc1 (configuration not stated)
  GIV Gai3 FP = 102.4

SMILES: COc1ccc(-c2cc(C(F)(F)F)n3nc(C(=O)Nc4ccc(C#N)cc4)cc3n2)cc1
  GIV Gai3 FP = 109.3

Overlap with the part before: two compounds, followed by the next part.
SMILES: O=C(CC1Sc2ccccc2NC1=O)Nc1ccc(F)cc1 (configuration not stated)
  GIV Gai3 FP = 102.4

SMILES: COc1ccc(-c2cc(C(F)(F)F)n3nc(C(=O)Nc4ccc(C#N)cc4)cc3n2)cc1
  GIV Gai3 FP = 109.3

SMILES: O=C1c2cccc3c(N4CCCCC4)ccc(c23)C(=O)N1c1ccccn1
  GIV Gai3 FP = -28.6*

SMILES: CC(=O)N(C(C)=O)N1C(=O)c2cccc3c(N4CCOCC4)ccc(c23)C1=O
  GIV Gai3 FP = 164.8

SMILES: O=C1C=CC(=O)N1c1ccccc1N1CCCCCC1
  GIV Gai3 FP = 101.5

SMILES: CN(C)S(=O)(=O)c1ccc(-c2n[nH]c(=S)n2-c2ccc(Cl)cc2)cc1
  GIV Gai3 FP = 104.2

SMILES: CCSCCOC(=O)C1=C(C)NC2=C(C(=O)CC(c3ccc(OC)cc3)C2)C1c1ccc(OC)cc1 (configuration not stated)
  GIV Gai3 FP = 106.8

SMILES: COc1ccc2c(c1)CC/C(=C\c1cccn1C)C2=O
  GIV Gai3 FP = 100.9

SMILES: Cn1cccc1C=C1C(=O)c2ccccc2C1=O
  GIV Gai3 FP = 111.0

SMILES: Cn1cccc1/C=C1\CCC/C(=C\c2cccn2C)C1=O
  GIV Gai3 FP = -87.6*

SMILES: COc1ccc(-c2cc(C(F)(F)F)n3nc(C(=O)N4CCSCC4)c(Cl)c3n2)cc1OC
  GIV Gai3 FP = 102.7

SMILES: C=CCOC(=O)C1=C(C)NC(SCC(=O)Nc2ccc(C)cc2C)=C(C#N)C1c1ccco1 (configuration not stated)
  GIV Gai3 FP = 103.5

SMILES: Cc1csc(-n2[nH]c(C)c(CCC(=O)Nc3ccc(F)cc3)c2=O)n1
  GIV Gai3 FP = 104.9

SMILES: O=[N+]([O-])c1cccc(N=Cc2sc3ccccc3c2O)c1
  GIV Gai3 FP = 106.8

SMILES: Oc1c(C=NCc2ccccc2)sc2ccccc12
  GIV Gai3 FP = 115.0

SMILES: COc1ccc(N=Cc2sc3ccccc3c2O)cc1
  GIV Gai3 FP = -32.1*

SMILES: CCOC(=O)c1cccc(NC(=O)CN2C(=O)COc3ccc(S(=O)(=O)N4CCC(C)CC4)cc32)c1
  GIV Gai3 FP = 108.5

SMILES: CCc1ccc(NC(=O)N(C(C)C)C2CCN(C(C)=O)CC2)cc1
  GIV Gai3 FP = 95.6

SMILES: CNc1onc(-c2ccc(F)cc2)c1C(=O)OC
  GIV Gai3 FP = 101.1

SMILES: CCCc1nnc2sc(COc3cccc(OC)c3)nn12
  GIV Gai3 FP = 113.1

SMILES: C=CCNc1ccc2c3c1cccc3c(=O)n1c3ccccc3nc21
  GIV Gai3 FP = -51.6*

SMILES: O=c1c2cccc3cccc(c32)c2nc3ccccc3n12
  GIV Gai3 FP = 112.2

SMILES: O=c1c2ccc(N3CCCCC3)c3cccc(c32)c2nc3ccccc3n12
  GIV Gai3 FP = 104.2

SMILES: O=C1NC(=O)N(C2CCCCC2)C(=O)/C1=C\c1ccc(-c2ccc(C(=O)O)cc2)o1
  GIV Gai3 FP = 111.9

SMILES: O=C1NC(=O)N(C2CCCCC2)C(=O)/C1=C\C=C\c1ccco1
  GIV Gai3 FP = 163.1

SMILES: CN(C)c1ccc(/C=C2\C(=O)NC(=O)N(C3CCCC3)C2=O)o1
  GIV Gai3 FP = -41.6*

SMILES: COc1cc(C2Nc3c(C)cc(C)cc3[C@H]3OCCC[C@@H]23)cc(Cl)c1OC (some centres not stated)
  GIV Gai3 FP = 96.0

SMILES: COc1cccc(NC(=O)Cn2c(=O)nc(NCc3ccccc3)c3ccccc32)c1
  GIV Gai3 FP = 98.3

SMILES: Oc1ccc(C=Nc2ccc(Nc3ccccc3)cc2)c(O)c1
  GIV Gai3 FP = 6.8*

SMILES: C(=Nc1ccc(Nc2ccccc2)cc1)c1ccco1
  GIV Gai3 FP = 123.2

SMILES: Oc1ccc(C=Nc2cccc(C(F)(F)F)c2)c(O)c1
  GIV Gai3 FP = 110.1

SMILES: COC(=O)C(C)Oc1ccc2cc(-c3nc4ccccc4s3)c(=O)oc2c1 (configuration not stated)
  GIV Gai3 FP = 119.9

SMILES: COc1ccc(-c2cc3ccc(O)c(CN4CCN(CCO)CC4)c3oc2=O)cc1OC
  GIV Gai3 FP = 125.5

SMILES: O=c1oc2c(CN3CCN(CCO)CC3)c(O)ccc2cc1-c1nc2ccccc2s1
  GIV Gai3 FP = -45.3*

SMILES: COc1ccc(-c2cc3ccc(O)c(CN4CCOCC4)c3oc2=O)cc1OC
  GIV Gai3 FP = 123.5

SMILES: O=c1oc2c(CN3CCOCC3)c(O)ccc2cc1-c1ccccc1
  GIV Gai3 FP = 102.0

SMILES: Cc1c(-c2ccccc2)c(=O)oc2c(CN3CCCC3)c(O)ccc12
  GIV Gai3 FP = 104.8

SMILES: CN1CCN(Cc2c(O)ccc3cc(-c4nc5ccccc5n4C)c(=O)oc23)CC1
  GIV Gai3 FP = 130.5

SMILES: N#CCOc1ccc2cc(-c3nc4ccccc4s3)c(=O)oc2c1
  GIV Gai3 FP = 155.0

SMILES: O=c1oc2c(CN3CCCCCC3)c(O)ccc2cc1-c1nc2ccccc2s1
  GIV Gai3 FP = -31.8*

SMILES: O=c1oc2c(CN3CCCCC3)c(O)ccc2cc1-c1nc2ccccc2s1
  GIV Gai3 FP = -31.8*

SMILES: O=c1oc2cc(OCc3cccc(Cl)c3)ccc2cc1-c1nc2ccccc2s1
  GIV Gai3 FP = 106.2

SMILES: CC1CCN(Cc2c(O)ccc3cc(-c4nc5ccccc5s4)c(=O)oc23)CC1
  GIV Gai3 FP = -31.8*

SMILES: O=C(Cc1ccccc1)Nc1nnc(SCC(=O)Nc2nnc(-c3cccc([N+](=O)[O-])c3)s2)s1
  GIV Gai3 FP = 109.3

SMILES: O=S(=O)(Cc1ccccc1)N1CC(OCc2cccc(F)c2)C1
  GIV Gai3 FP = 98.5

SMILES: CCn1c(=O)c2cc(C(=O)NCCc3ccsc3)sc2c2ccccc21
  GIV Gai3 FP = 100.2

SMILES: COC(=O)CSc1nc2nc3c(cn2n1)C(=O)CC(c1ccco1)C3 (configuration not stated)
  GIV Gai3 FP = 97.4

SMILES: O=C(Nc1cc(F)ccc1F)C1Oc2ccccc2NC1=O (configuration not stated)
  GIV Gai3 FP = 96.7

SMILES: Cc1ccc(-c2nc3nc(C)c(CC(=O)NC(C)C)c(C)n3n2)cc1
  GIV Gai3 FP = 101.4

SMILES: O=c1oc2ccc(Br)cc2cc1-c1nc2ccccc2s1
  GIV Gai3 FP = 103.7

SMILES: O=c1oc2ccccc2cc1-c1nc2ccccc2s1
  GIV Gai3 FP = 100.7

SMILES: CN(C)Cc1c(O)ccc2cc(-c3nc4ccccc4s3)c(=O)oc12
  GIV Gai3 FP = -45.3*

SMILES: O=c1c2c(-c3ccccc3)csc2ncn1C1CCCC1
  GIV Gai3 FP = 100.5

SMILES: O=C(Nc1cccc(-c2nc(-c3ccccc3)no2)c1)C1CC(=O)N(Cc2ccccc2)C1 (configuration not stated)
  GIV Gai3 FP = 107.6

SMILES: CCCCNc1c(Cl)cnn(-c2ccccc2)c1=O
  GIV Gai3 FP = 99.6

SMILES: O=C1c2ccccc2-c2c(Nc3ccccc3)c(=O)[nH]c3cccc1c23
  GIV Gai3 FP = 111.2

SMILES: O=C1c2ccccc2-c2c(NCCc3ccccc3)c(=O)[nH]c3cccc1c23
  GIV Gai3 FP = -73.2*

SMILES: CCCCNc1c2c3c(cccc3[nH]c1=O)C(=O)c1ccccc1-2
  GIV Gai3 FP = -47.8*

SMILES: O=c1[nH]ncc(NCCc2ccccc2)c1Cl
  GIV Gai3 FP = 96.9

SMILES: Nc1c2c3c(c(Cl)ccc3[nH]c1=O)C(=O)c1ccccc1-2
  GIV Gai3 FP = 102.3

SMILES: O=S1(=O)C[C@H](N2CCOCC2)[C@@H](S(=O)(=O)c2ccc(F)cc2)C1
  GIV Gai3 FP = 99.1

SMILES: CCCc1cc(Sc2ccc(NC(=O)CC(C)C)cc2)n2ncnc2n1
  GIV Gai3 FP = 103.9

SMILES: O=C(O)C1C2CC3CC(C2)C(O)C1C3 (configuration not stated)
  GIV Gai3 FP = 97.8

SMILES: CCN(C(=O)Cc1c[nH]c2ccccc12)C1(C(=O)Nc2cccc(C)c2)CCCCC1
  GIV Gai3 FP = 121.4

Copied from the list.
Result for Nc1c2c3c(c(Cl)ccc3[nH]c1=O)C(=O)c1ccccc1-2 in GIV Gai3 FP: 102.3
Result for CCCCNc1c2c3c(cccc3[nH]c1=O)C(=O)c1ccccc1-2 in GIV Gai3 FP: -47.8*
Result for CCN(C(=O)Cc1c[nH]c2ccccc12)C1(C(=O)Nc2cccc(C)c2)CCCCC1 in GIV Gai3 FP: 121.4
Result for CN(C)Cc1c(O)ccc2cc(-c3nc4ccccc4s3)c(=O)oc12 in GIV Gai3 FP: -45.3*
Result for O=C(Nc1cc(F)ccc1F)C1Oc2ccccc2NC1=O (configuration not stated) in GIV Gai3 FP: 96.7
Result for O=C(O)C1C2CC3CC(C2)C(O)C1C3 (configuration not stated) in GIV Gai3 FP: 97.8

Assay outcomes from PubChem.
